The source of these data is patent US9675612B2, “Substituted thiazolopyrimidines” (BAYER PHARMA AKTIENGESELLSCHAFT, priority 2013, dated 2017).

By UniProt entry, the sequences of proteins in these tests, tags left out. Chains listed by the source or under a name are the forms on record and can include a tag or linker.
UniProt Q9BUB5, other isoform, or with tags, fused parts or gaps T344D: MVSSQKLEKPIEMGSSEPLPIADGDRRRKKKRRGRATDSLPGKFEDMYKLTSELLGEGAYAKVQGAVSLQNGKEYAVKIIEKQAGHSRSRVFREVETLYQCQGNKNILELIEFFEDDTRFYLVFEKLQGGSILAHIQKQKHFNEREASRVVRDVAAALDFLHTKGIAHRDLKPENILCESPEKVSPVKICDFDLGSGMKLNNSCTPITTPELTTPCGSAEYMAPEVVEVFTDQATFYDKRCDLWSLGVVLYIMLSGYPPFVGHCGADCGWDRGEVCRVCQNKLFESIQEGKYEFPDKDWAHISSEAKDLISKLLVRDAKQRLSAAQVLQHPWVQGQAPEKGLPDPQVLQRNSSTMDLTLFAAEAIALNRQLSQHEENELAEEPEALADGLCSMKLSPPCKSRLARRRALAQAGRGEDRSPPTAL

Each structure is given as a SMILES string.

The IC50 is the point on the concentration scale where inhibition reaches its midpoint. Read a low IC50 as higher potency.

For the test, the target named is human full-length MKNK1 (Homo sapiens (Human), UniProt Q9BUB5, T344D). Kind of test: MKNK1 kinase high ATP assay (TR-FRET). Particulars: high ATP (2 mM final), 15 min preincubation with MKNK1, TR-FRET. It is filed as biochemical. The method, then:
MKNK1 Kinase High ATP Assay
MKNK1-inhibitory activity at high ATP of compounds of the present invention after their preincubation with MKNK1 was quantified employing the TR-FRET-based MKNK1 high ATP assay as described in the following paragraphs.
As substrate for the kinase reaction the biotinylated peptide biotin-Ahx-[…] (C-terminus in amide form) was used, which can be purchased e.g. from the company Biosyntan (Berlin-Buch, Germany).
For the assay 50 nL of a 100 fold concentrated solution of the test compound in DMSO was pipetted into a black low volume 384 well microtiter plate (Greiner Bio-One, Frickenhausen, Germany), 2 μL of a solution of MKNK1 in aqueous assay buffer [50 mM HEPES pH 7.5, 5 mM MgCl2, 1.0 mM dithiothreitol, 0.005% (v/v) Nonidet-P40 (Sigma)] was added and the mixture was incubated for 15 min at 22° C. to allow pre-binding of the test compounds to the enzyme before the start of the kinase reaction. Then the kinase reaction was started by the addition of 3 μL of a solution of adenosine-tri-phosphate (ATP, 3.3 mM=>final conc. in the 5 μL assay volume is 2 mM) and substrate (0.1 μM=>final conc. in the 5 μL assay volume is 0.06 μM) in assay buffer and the resulting mixture was incubated for a reaction time of 30 min at 22° C. The concentration of MKNK1 was adjusted depending of the activity of the enzyme lot and was chosen appropriate to have the assay in the linear range, typical concentrations were in the range of 0.003 μg/mL. The reaction was stopped by the addition of 5 μL of a solution of TR-FRET detection reagents (5 nM streptavidine-XL665 [Cisbio Bioassays, Codolet, France] and 1 nM anti-ribosomal protein S6 (pSer236)-antibody from Invitrogen [#44921G] and 1 nM LANCE EU-W1024 labeled ProteinG [Perkin-Elmer, product no. AD0071]) in an aqueous EDTA-solution (100 mM EDTA, 0.1% (w/v) bovine serum albumin in 50 mM HEPES pH 7.5).
The resulting mixture was incubated for 1 h at 22° C. to allow the formation of complex between the phosphorylated biotinylated peptide and the detection reagents. Subsequently the amount of phosphorylated substrate was evaluated by measurement of the resonance energy transfer from the Eu-chelate to the streptavidine-XL.
For orientation: Time-resolved FRET reads energy transfer from a long-lived donor to a nearby acceptor.

With `COc1cc2[nH]c(=O)sc2cc1Nc1ncnc2scnc12` [Example 18, 5-Methoxy-6-([1,3]thiazolo[5,4-d]pyrimidin-7-ylamino)-1,3-benzothiazol-2(3H)-one], the IC50 was determined as 104 nM. That is a sub-micromolar value.

In the case of `CC1(O)CN(C(=O)CCCc2nc3c(Nc4ccc5[nH]ncc5c4)ncnc3s2)C1` [Example 12, 1-(3-Hydroxy-3-methylazetidin-1-yl)-4-[7-(1H-indazol-5-ylamino)[1,3]thiazolo[5,4-d]pyrimidin-2-yl]butan-1-one], the IC50 came to 173 nM.

As to `CC(C)Oc1cc2[nH]ncc2cc1Nc1ncnc2sc(CCc3ccccc3)nc12` [Example 17, 2-(2-Phenylethyl)-N-[6-(propan-2-yloxy)-1H-indazol-5-yl][1,3]thiazolo[5,4-d]pyrimidin-7-amine], the IC50 came to 229 nM. This IC50 and that of the compound before are within 1.5-fold of each other.

`CN(C)C(=O)CCN(C)C(=O)c1nc2c(Nc3ccc4[nH]ncc4c3)ncnc2s1` [Example 40, N-[3-(Dimethylamino)-3-oxopropyl]-7-(1H-indazol-5-ylamino)-N-methyl[1,3]thiazolo[5,4-d]pyrimidine-2-carboxamide] showed an IC50 of 49 nM.

In the case of `CC(C)Oc1cc2[nH]ncc2cc1Nc1ncnc2sc(C(=O)N(C)C)nc12` [Example 44, N,N-Dimethyl-7-{[6-(propan-2-yloxy)-1H-indazol-5-yl]amino}[1,3]thiazolo[5,4-d]pyrimidine-2-carboxamide], the midpoint of inhibition, the IC50, lay at 52 nM. The IC50 values of the last two compounds are within 1.5-fold of each other.

In turn, `COc1cc2[nH]ncc2cc1Nc1ncnc2sc(C(=O)N(C)C)nc12` [Example 29, 7-[(6-Methoxy-1H-indazol-5-yl)amino]-N,N-dimethyl[1,3]thiazolo[5,4-d]pyrimidine-2-carboxamide] yielded a concentration for half-maximal inhibition (IC50) of 199 nM. Against the preceding compound, the IC50 is about 3.8-fold higher.

Regarding `O=c1[nH]c2ccc(Nc3ncnc4sc(C5CCCCC5)nc34)cc2s1` [Example 3, 6-[(2-Cyclohexyl[1,3]thiazolo[5,4-d]pyrimidin-7-yl)amino]-1,3-benzothiazol-2(3H)-one], the half-inhibitory concentration (IC50) worked out at 197 nM.

In the case of `CC(C)Oc1cc2[nH]ncc2cc1Nc1ncnc2sc(C(=O)N(C)CCC(=O)N(C)C)nc12` [Example 47, N-[3-(Dimethylamino)-3-oxopropyl]-7-[(6-isopropoxy-1H-indazol-5-yl)amino]-N-methyl[1,3]thiazolo[5,4-d]pyrimidine-2-carboxamide], the IC50 was found to be 32 nM. Compared with the last compound, the IC50 is about 6.2-fold lower.

Compound `CN(C)C(=O)c1nc2c(Nc3ccc4[nH]c(=O)sc4c3)ncnc2s1` [Example 27, N,N-Dimethyl-7-[(2-oxo-2,3-dihydro-1,3-benzothiazol-6-yl)amino][1,3]thiazolo[5,4-d]pyrimidine-2-carboxamide] had a concentration for half-maximal inhibition (IC50) of 408 nM.

As for `CCOc1cc2[nH]ncc2cc1Nc1ncnc2sc(C(=O)N(C)CCC(=O)N(C)C)nc12` [Example 42, N-[3-(Dimethylamino)-3-oxopropyl]-7-[(6-ethoxy-1H-indazol-5-yl)amino]-N-methyl[1,3]thiazolo[5,4-d]pyrimidine-2-carboxamide], the IC50 was 125 nM.

In turn, `CN(C)C(=O)CCCc1nc2c(Nc3ccc4[nH]ncc4c3)ncnc2s1` [Example 13, 4-[7-(1H-Indazol-5-ylamino)[1,3]thiazolo[5,4-d]pyrimidin-2-yl]-N,N-dimethylbutanamide] returned an IC50 of 122 nM. The IC50 values of the last two compounds are within 1.5-fold of each other.
